# Sampled rows, rich in hits. Any-hit rate of the full collection: about 1.8%.
# Yeast UUG start = modulators of yeast start codon fidelity, primary screen, whole organism, S. cerevisiae, single point, plate reader; activity score, % at 18.7 µM; actives 0.13% (n = 350,000); S. cerevisiae UUG-firefly luciferase reporter, luminescence/redox ratio;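 active = replicate mean at a twofold rise or more, about +100% in these data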;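 also: firefly luciferase made from a UUG start codon reports start codon fidelity; reporter light over untreated wells divided by growth signal over untreated wells; some hits fall short of that in this replicate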
# Cneo AK release = Cryptococcus neoformans cell lysis inducers, primary screen, AK release luminescence, single concentration. AID 651654, 2012. C. neoformans lysis, adenylate kinase release luminescence, 4 h; normalised: neutral wells 0, clomiphene wells 100. 360,000 tested, 0.2% active. lysis activity, % at 15 µM;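 active = mean lysis activity across replicates of at least 80%, whatever share of replicates individually reach that level; inactive = mean lysis activity below 80%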
#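 read-out = cell lysis signal | test system = log-phase Cryptococcus neoformans yeast cells | input = cells at 5 × 10^6 per mL | medium = fresh YPD growth medium | signal = luminescent adenylate kinase detection reagent | timing = 4 h at 37 °C static, read 1 h later | dosing = single dose | controls = Clomiphene as positive lysis control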
# E-selectin induc = E-selectin induction in HUVECs, primary screen, imaging, HUVEC, immunofluorescence imaging, single point; P16581; normalized: neutral wells 0, TNF-alpha wells 100; activation, % at 7.58 µM; 260,000 tested, 0.37% active;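 active = mean E-selectin-positive cell signal at least 10% of the positive control, reached in at least 60% of replicates, without over 20% cell loss; inconclusive = no rule given, readout overlaps actives, possibly toxicity-flagged; inactive = the rest, including those meeting only one limit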
#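 System: HUVEC / Compound: single concentration / Signal: immunofluorescence imaging / Read-out: percent E-selectin-positive cells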
# DENV2 CPE rescue = inhibitors of DENV2 cytopathic effect, primary screen, cell-based, plate reader, single concentration. DENV2-infected cells, cytopathic effect rescue. CPE inhibition, % at 9.99 µM. 350,000 tested, 1.7% active. AID 651640, 2012; in the data active = CPE inhibition above about 20%, passing the limit was not always enough; inconclusive = no clear call, values can overlap the other calls; tested in BHK-21 cells;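 note: 0% = median of neutral control wells and 100% = median of positive control wells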
# * = called active by the depositor; ? = inconclusive; . = no result given.
# Assay codes – A = Yeast UUG start; B = Cneo AK release; C = E-selectin induc; D = DENV2 CPE rescue
1) CCS(=O)(=O)N1CC2(C1)[C@@H](c1ccccc1)[C@@H](CO)N2Cc1ccc(F)cc1
  A: .; B: .; C: 0; D: 1
2) OC[C@@H]1[C@@H](c2ccccc2)C2(CN(CC3CCOCC3)C2)N1Cc1nccs1
  A: .; B: .; C: 0; D: 51*
3) C[C@H]1CN([C@@H](C)CO)C(=O)c2cc(NC(=O)CCCCCC(=O)Nc3ccccc3N)ccc2O[C@@H]1CN(C)S(=O)(=O)c1cn(C)cn1
  A: .; B: .; C: -4; D: -13
4) CN1C(=O)c2cc(NC(=O)c3cccs3)ccc2OC[C@H]2O[C@@H](CC(=O)Nc3ccc4c(c3)COC4)CC[C@@H]21
  A: .; B: .; C: 0; D: 0
5) C[C@H](CO)N1C[C@H](C)[C@H](CN(C)C(=O)Nc2ccc3c(c2)OCO3)Oc2ccc(NC(=O)Cc3ccccc3)cc2CC1=O
  A: -3; B: 0; C: -5; D: -1
6) O=C(c1ccccc1)N1[C@H](CO)[C@H](c2ccccc2)C12CN(CCC(F)(F)F)C2
  A: .; B: .; C: 0; D: 20*
7) O=C(C1CC1)N1[C@H](CO)[C@H](c2ccccc2)C12CN(CCC(F)(F)F)C2
  A: .; B: .; C: 0; D: 16
8) CCC(=O)N1CC2(C1)[C@@H](c1ccccc1)[C@@H](CO)N2S(=O)(=O)Cc1ccccc1
  A: .; B: .; C: 0; D: -11
9) CCC(=O)N1CC2(C1)[C@H](c1ccccc1)[C@H](CO)N2S(=O)(=O)Cc1ccccc1
  A: .; B: .; C: 0; D: -7
10) O=C(Cc1ccccc1)N1CC2(C1)[C@@H](c1ccccc1)[C@@H](CO)N2S(=O)(=O)Cc1ccccc1
  A: .; B: .; C: 0; D: 35*
11) O=C(Cc1ccccc1)N1CC2(C1)[C@@H](c1ccccc1)[C@H](CO)N2S(=O)(=O)Cc1ccccc1
  A: .; B: .; C: 0; D: 43*
12) COc1ccc(NC(=O)Nc2ccc3c(c2)C(=O)N([C@H](C)CO)C[C@@H](C)[C@H](CN(C)S(=O)(=O)c2ccc(Cl)cc2)OCCCC[C@H](C)O3)cc1
  A: -14; B: -13; C: .; D: 5
13) C[C@H](CO)N1C[C@H](C)[C@@H](CN(C)C(=O)CCCN(C)C)OCCCC[C@H](C)Oc2ccc(NS(=O)(=O)c3cccs3)cc2C1=O
  A: 10; B: 0; C: 0; D: -5
14) C[C@@H]1CCCCO[C@H](CN(C)C(=O)CCCN(C)C)[C@H](C)CN([C@@H](C)CO)C(=O)c2cc(NS(=O)(=O)c3cccs3)ccc2O1
  A: 6; B: 1; C: 0; D: -12
15) C[C@@H]1CN([C@@H](C)CO)C(=O)c2cc(NS(=O)(=O)c3cccs3)ccc2O[C@@H](C)CCCCO[C@@H]1CN(C)C(=O)CCCN(C)C
  A: 14; B: -2; C: 0; D: 46*

# Record cards (already shown). Order of values: Yeast UUG start, Cneo AK release, E-selectin induc, DENV2 CPE rescue
# `O=C(c1ccccc1)N1[C@H](CO)[C@H](c2ccccc2)C12CN(CCC(F)(F)F)C2` across the screens: ., ., 0, 20*
# `O=C(C1CC1)N1[C@H](CO)[C@H](c2ccccc2)C12CN(CCC(F)(F)F)C2` across the screens: ., ., 0, 16
# `OC[C@@H]1[C@@H](c2ccccc2)C2(CN(CC3CCOCC3)C2)N1Cc1nccs1` across the screens: ., ., 0, 51*

# (continued)
# Assay codes – A = Yeast UUG start; B = Cneo AK release; C = E-selectin induc; D = DENV2 CPE rescue
16) C[C@H](CO)N1C[C@H](C)[C@H](CN(C)C(=O)CCCN(C)C)OCCCC[C@H](C)Oc2ccc(NS(=O)(=O)c3cccs3)cc2C1=O
  A: 15; B: 1; C: 1; D: 55*
17) CNC[C@@H]1Oc2c(NC(=O)Nc3ccc(OC)cc3)cccc2C(=O)N([C@H](C)CO)C[C@H]1C
  A: 0; B: -2; C: 0; D: 1
18) C[C@H](CO)N1C[C@H](C)[C@@H](CN(C)C(=O)Nc2ccc(F)cc2)Oc2ccc(NC(=O)CCC(F)(F)F)cc2CC1=O
  A: -1; B: 47; C: 2; D: 0
19) S=C(Nc1ccccc1)N1CCN(c2ccccn2)CC1
  A: .; B: .; C: 0; D: 5
20) CCC(C)c1ccc(NC(=S)N2CCN(c3ccccn3)CC2)cc1 (centres undefined)
  A: -16; B: 105*; C: -1; D: 2
21) Cc1noc(C)c1S(=O)(=O)Nc1ccc2c(c1)CC(=O)N([C@H](C)CO)C[C@@H](C)[C@H](CN(C)Cc1ccccc1)O2
  A: -10; B: 0; C: 0; D: 22*
22) Cc1noc(C)c1S(=O)(=O)Nc1ccc2c(c1)CC(=O)N([C@H](C)CO)C[C@H](C)[C@@H](CN(C)Cc1ccc(-c3ccccc3)cc1)O2
  A: .; B: .; C: 58*; D: -2
23) CC=Cc1ccc2n(c1=O)C[C@H]1[C@H](CO)[C@@H](C(=O)N[C@@H](C)c3ccccc3)[C@@H]2N1Cc1cccnc1 (mixture of isomers)
  A: .; B: -11; C: 0; D: 3
24) O=C(NCC(c1ccco1)N1CCN(c2ccccc2)CC1)C1CCCCC1 (centres undefined)
  A: -1; B: 0; C: 0; D: 72*
25) O=C(NCC(c1ccco1)N1CCN(c2ccccc2)CC1)C(=O)NC1CCCCC1 (centres undefined)
  A: -11; B: -2; C: .; D: -6
26) CC(C)C#Cc1ccc([C@@H]2[C@@H](CO)N3C(=O)CN(S(=O)(=O)c4ccccc4)C[C@H]23)cc1
  A: .; B: .; C: 1; D: 2
27) CC(C)NC(=O)Nc1cccc2c1O[C@@H](CN(C)C(=O)Nc1ccc(F)cc1)[C@@H](C)CN([C@@H](C)CO)C2=O
  A: 22; B: 48; C: 0; D: -8
28) O=[N+]([O-])c1ccc2c(c1)CO[C@@]21O[C@H](CCO)C[C@H](O)[C@H]1O
  A: 13; B: 2; C: 65*; D: 7
29) O=C(Nc1ccc(F)cc1)Nc1ccc2c(c1)[C@H]1C[C@@H](CC(=O)N3CCCCC3)O[C@H](CO)[C@H]1O2
  A: -4; B: -1; C: 0; D: 16
30) c1ccc(C[C@H]2CNCCN2CCCCC2CCCCC2)cc1
  A: -17; B: 1; C: 0; D: -15
31) c1ccc2c(C[C@@H]3CNCCN3CCCCC3CCCCC3)cccc2c1
  A: -6; B: 5; C: 0; D: 24*
32) O=C(NCc1ccc(F)cc1)C1CCCN(S(=O)(=O)c2ccc(-n3cnnn3)cc2)C1 (centres undefined)
  A: 14; B: -2; C: .; D: -3
33) O=C(NCc1ccccc1)C1CCCN(S(=O)(=O)c2ccc(-n3cnnn3)cc2)C1 (centres undefined)
  A: -8; B: -3; C: 31*; D: ?
34) C[C@@H]1CCCCO[C@H](CN(C)C(=O)Nc2ccc3c(c2)OCO3)[C@@H](C)CN([C@@H](C)CO)C(=O)c2cc(NS(=O)(=O)c3cn(C)cn3)ccc2O1
  A: -4; B: 1; C: 0; D: -6
35) N#CC[C@H](c1ccccc1)N1CCN(Cc2ccccc2)CCC1=O
  A: 4; B: 9; C: .; D: 60*
36) C[C@H](CO)N1C[C@H](C)[C@@H](CN(C)S(=O)(=O)c2ccc(F)cc2)Oc2ccc(N(C)C)cc2CC1=O
  A: 5; B: -2; C: .; D: 2
37) CCc1cc2c(cc3c(=O)n(CC(=O)NCCCN4CC(C)CC(C)C4)ncn32)s1 (centres undefined)
  A: -14; B: 0; C: 0; D: 64*
38) COc1ccccc1Cn1c(=S)[nH]c2cc(C(=O)N3CCN(c4ccccc4OC)CC3)ccc2c1=O
  A: -23; B: -18; C: .; D: 9
39) COc1ccccc1Cn1c(=S)[nH]c2cc(C(=O)N3CC(C)CC(C)C3)ccc2c1=O (centres undefined)
  A: -20; B: -1; C: 0; D: 22*
40) C#CCNC(=O)C[C@@H]1C[C@@]2(C(=O)OC)CCCCC=C2N(Cc2cccc3ccccc23)C1=O
  A: .; B: .; C: 0; D: 90*
41) COC(=O)[C@]12CCCCC=C1N(Cc1ccc(Cl)cc1Cl)C(=O)[C@H](CC(=O)NCC13CC4CC(CC(C4)C1)C3)C2
  A: .; B: .; C: 0; D: -4
42) CCCCCCCCN1C(=O)[C@H](CC(=O)NCC23CC4CC(CC(C4)C2)C3)C[C@@]2(C(=O)OCC)CCCC=C12
  A: .; B: .; C: .; D: 20*
